Data: PubChem BioAssay AID731 (The Scripps Research Institute Molecular Screening Center, 2007)
This is a selection; strong and weak results do not stand in their true shares. Active and inactive are the calls of the source. Cut-off read from the data, not from the text of the source: active = activation above about 23%; inactive = the rest.

Protein sequences, listed by entry. Tags and fused reporters are not part of them. Residues count along the entry.
UniProt P37231, 232-505 limits assumed: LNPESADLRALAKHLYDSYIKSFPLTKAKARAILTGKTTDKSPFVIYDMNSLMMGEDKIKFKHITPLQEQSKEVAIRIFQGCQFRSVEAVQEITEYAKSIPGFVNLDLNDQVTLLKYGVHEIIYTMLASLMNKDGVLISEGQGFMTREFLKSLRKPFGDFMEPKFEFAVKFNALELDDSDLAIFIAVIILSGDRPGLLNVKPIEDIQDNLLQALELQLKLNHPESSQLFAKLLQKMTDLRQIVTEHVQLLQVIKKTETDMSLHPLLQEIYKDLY
UniProt Q9Y6Q9, whole entry partner: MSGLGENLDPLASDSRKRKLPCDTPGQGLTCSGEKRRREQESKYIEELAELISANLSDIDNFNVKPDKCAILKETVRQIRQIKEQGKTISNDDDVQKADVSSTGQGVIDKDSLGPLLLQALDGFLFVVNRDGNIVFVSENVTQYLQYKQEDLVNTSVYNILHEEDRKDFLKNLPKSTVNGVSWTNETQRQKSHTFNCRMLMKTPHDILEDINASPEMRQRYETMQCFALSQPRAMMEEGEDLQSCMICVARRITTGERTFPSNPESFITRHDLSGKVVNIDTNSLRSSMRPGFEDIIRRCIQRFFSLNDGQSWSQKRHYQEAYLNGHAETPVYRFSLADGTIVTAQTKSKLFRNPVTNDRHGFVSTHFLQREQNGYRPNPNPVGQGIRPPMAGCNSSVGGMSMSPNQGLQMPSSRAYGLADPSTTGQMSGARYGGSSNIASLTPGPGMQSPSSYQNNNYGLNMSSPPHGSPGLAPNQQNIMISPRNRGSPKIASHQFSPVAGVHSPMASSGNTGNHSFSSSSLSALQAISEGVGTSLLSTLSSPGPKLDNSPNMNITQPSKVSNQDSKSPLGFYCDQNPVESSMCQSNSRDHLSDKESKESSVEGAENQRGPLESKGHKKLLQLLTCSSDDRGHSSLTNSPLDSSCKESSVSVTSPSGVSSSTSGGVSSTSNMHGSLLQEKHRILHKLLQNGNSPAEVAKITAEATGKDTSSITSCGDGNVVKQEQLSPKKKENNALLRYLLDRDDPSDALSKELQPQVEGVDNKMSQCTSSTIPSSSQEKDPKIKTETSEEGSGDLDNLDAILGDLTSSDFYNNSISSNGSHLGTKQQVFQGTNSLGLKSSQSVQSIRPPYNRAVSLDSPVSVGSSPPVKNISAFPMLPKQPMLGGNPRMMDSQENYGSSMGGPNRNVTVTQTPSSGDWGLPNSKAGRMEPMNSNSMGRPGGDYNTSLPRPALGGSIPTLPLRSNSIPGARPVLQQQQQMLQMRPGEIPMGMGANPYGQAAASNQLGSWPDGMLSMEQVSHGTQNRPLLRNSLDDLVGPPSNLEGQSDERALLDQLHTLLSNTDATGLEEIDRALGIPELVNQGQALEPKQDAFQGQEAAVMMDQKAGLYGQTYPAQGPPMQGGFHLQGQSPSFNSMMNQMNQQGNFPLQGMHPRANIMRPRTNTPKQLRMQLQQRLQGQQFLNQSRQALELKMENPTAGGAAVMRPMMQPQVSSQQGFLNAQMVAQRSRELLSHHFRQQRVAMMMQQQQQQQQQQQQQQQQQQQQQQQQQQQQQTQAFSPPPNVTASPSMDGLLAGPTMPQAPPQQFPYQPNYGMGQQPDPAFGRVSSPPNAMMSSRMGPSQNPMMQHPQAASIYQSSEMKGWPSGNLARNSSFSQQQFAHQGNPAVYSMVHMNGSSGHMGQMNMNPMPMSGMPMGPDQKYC

biological target: Peroxisome proliferator-activated receptor gamma (Homo sapiens) (UniProt P37231); experiment: PPARgamma agonists recruiting SRC-3 coactivator, primary screen, biochemical (AID 731); conditions: biochemical PPARgamma/SRC-3 coactivator recruitment assay; at 8 µM; hits give high values;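 note: 0% = DMSO and 100% = reference agonist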

| SMILES | activation |
| --- | --- |
| COc1ccc(NC2CCN(CCc3ccccc3)CC2)c(OC)c1 | inactive: 4.07% |
| O=C(NCC1(N2CCOCC2)CCCCC1)c1cc2ccccc2o1 | inactive: 2.62% |
| O=C(OC1CN2CCC1CC2)C1c2ccccc2Oc2ccccc21 (stereo not given) | inactive: -3.47% |
| CCOC(=O)N1CCC(Nc2ccc(OC)cc2)CC1 | inactive: 0.87% |
| COc1ccc(C(=O)NCC2(N3CCCCC3)CCCCC2)c(OC)c1OC | inactive: -0.95% |
| CN1CCC(Nc2cccc(F)c2)CC1 | inactive: 5.74% |
| CC(C)c1ccc(NC2CCN(C(=O)OC(C)(C)C)CC2)cc1 | inactive: -4.22% |
| CN(C)c1cccc(C(=O)NCC2(N3CCCCC3)CCCCC2)c1 | inactive: 0.66% |
| COc1ccc(CN(CCCl)CCCl)cc1Cl | inactive: -2.7% |
| O=C(NCC1(N2CCOCC2)CCCCC1)c1cc(=O)[nH]c2ccccc12 | inactive: -10.8% |
| CN1CCN(CCOC(=O)C(O)(c2ccccc2)c2ccccc2)CC1 | inactive: -1.89% |
| COc1ccc(NC2CCN(C(=O)OC(C)(C)C)CC2)cc1 | inactive: -2.57% |
| N#CC1(Nc2ccccc2)CCN(CCc2ccccc2)CC1 | inactive: 4.74% |
| O=C(NCC1(N2CCCCC2)CCCCC1)c1cccc([N+](=O)[O-])c1 | inactive: -4.07% |
| c1ccc(CN2CCC(Nc3ccccc3)CC2)cc1 | inactive: -8.95% |
| N#Cc1ccc(C(=O)NCC2(N3CCCCC3)CCCCC2)cc1 | inactive: 0.02% |
| N/C(=N\O)c1c(N)no[n+]1[O-] | inactive: 8.49% |
| O=C(OC1CN2CCC1CC2)C1c2ccccc2C=Cc2ccccc21 (stereo not given) | inactive: -0.6% |
| COc1ccc(C(=O)NCC2(N3CCOCC3)CCCCC2)cc1OC | inactive: -2.45% |
| COc1cc(OC)cc(C(=O)NCC2(N3CCOCC3)CCCCC2)c1 | inactive: 4.49% |
| CCC(CO)(C(=O)OC1CN2CCC1CC2)c1ccccc1 (stereo not given) | inactive: -1.49% |
| CCOc1ncccc1C(=O)NCC1(N2CCOCC2)CCCCC1 | inactive: 9.43% |
| CC(C)(C)OC(=O)N1CCC(Nc2ccccc2)CC1 | inactive: 5.3% |
| CCN1CCC(Nc2cccc(F)c2)CC1 | inactive: 4.11% |
| CN(C)c1ccc(C(=O)NCC2(N3CCCCC3)CCCCC2)cc1 | inactive: 9.17% |
